Membrane permeability of cyclic peptides

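The data file gives no further conditions (lipid, pH, time, direction or concentration), and values from different papers need not be comparable. The list need not hold all peptides of the study. Entries at the database's floor value (log10 P of -10) are not listed.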

PAMPA measures passive passage through an artificial lipid membrane.
P is given in units of 10^-6 cm/s (from log10 values with two decimals); larger means faster passage.

| PAMPA (10^-6 cm/s) | SMILES |
|---|---|
| 1.2 | CC(C)C[C@@H]1NC(=O)[C@@H](CC(C)C)NC(=O)C[C@H](Cc2ccccc2)NC(=O)[C@H](Cc2ccccc2)NC(=O)[C@@H](CC(C)C)NC(=O)[C@@H]2CCCN2C1=O |
| 0.48 | CC(C)C[C@@H]1NC(=O)[C@H](C)NC(=O)[C@H](Cc2ccccc2)NC(=O)CN(Cc2ccccc2)C(=O)[C@H]2CCCN2C(=O)[C@@H](CC(C)C)NC1=O |
| 1.4 | CC(C)C[C@H]1NC(=O)C[C@H](Cc2ccccc2)NC(=O)[C@H]2CCCN2C(=O)[C@H](Cc2ccccc2)NC(=O)[C@@H](CC(C)C)NC(=O)[C@H]2CCCN2C(=O)[C@@H](CC(C)C)NC1=O |
| 0.54 | CC(C)C[C@@H]1NC(=O)[C@@H](C)NC(=O)[C@H](Cc2ccccc2)NC(=O)[C@@H](CC(C)C)N(C)C(=O)[C@H]2CCCN2C(=O)[C@@H](CC(C)C)N(C)C1=O |
| 0.35 | CCCN1CC(=O)N(C)[C@@H](CC(C)C)C(=O)N(Cc2ccccc2)CC(=O)N2CCC[C@@H]2C(=O)N[C@@H](CC(C)C)C(=O)N[C@@H](Cc2ccccc2)C(=O)N2CCC[C@H]2C1=O |
| 9.8 | CCCN1CC(=O)N(C)[C@H](CC(C)C)C(=O)N(C)[C@@H](CC(C)C)C(=O)N2CCC[C@@H]2C(=O)N[C@@H](CC(C)C)C(=O)N[C@@H](Cc2ccccc2)C1=O |
| 5.4 | CC(C)C[C@@H]1C(=O)N[C@H](CC(C)C)C(=O)N2CCC[C@H]2C(=O)N(C)[C@@H](CC(C)C)C(=O)N[C@@H](Cc2ccccc2)C(=O)N2CCC[C@@H]2C(=O)N(C)[C@@H](C)C(=O)N1C |
| 4.3 | CC(C)C[C@@H]1C(=O)N[C@@H](Cc2ccccc2)C(=O)N2CCC[C@@H]2C(=O)N[C@@H](Cc2ccccc2)CC(=O)N(C)[C@@H](CC(C)C)C(=O)N[C@H](CC(C)C)C(=O)N2CCC[C@@H]2C(=O)N1C |
| 1.3 | CC(C)C[C@@H]1NC(=O)C[C@H](Cc2ccccc2)NC(=O)[C@H]2CCCN2C(=O)[C@H](Cc2ccccc2)NC(=O)[C@@H](CC(C)C)NC(=O)[C@@H]2CCCN2C(=O)C[C@H](Cc2ccccc2)NC1=O |
| 0.25 | CC(C)C[C@@H]1NC(=O)[C@@H](CC(C)C)NC(=O)[C@@H](C)NC(=O)[C@H]2CCCN2C(=O)[C@H](Cc2ccccc2)NC(=O)CN(Cc2ccccc2)C(=O)[C@@H]2CCCN2C1=O |
| 0.32 | CC(C)C[C@@H]1C(=O)N[C@@H](Cc2ccccc2)C(=O)N[C@H](C)C(=O)N[C@H](CC(C)C)C(=O)N(C)[C@@H](CC(C)C)C(=O)N2CCC[C@H]2C(=O)N1C |
| 0.66 | CC(C)C[C@@H]1C(=O)N[C@@H](Cc2ccccc2)CC(=O)N2CCC[C@@H]2C(=O)N[C@H](CC(C)C)C(=O)N[C@@H](Cc2ccccc2)C(=O)N2CCC[C@@H]2C(=O)N(C)[C@H](C)C(=O)N1C |
| 7.6 | CC(C)C[C@H]1C(=O)N[C@@H](Cc2ccccc2)CC(=O)N2CCC[C@H]2C(=O)N(C)[C@@H](CC(C)C)C(=O)N[C@@H](Cc2ccccc2)C(=O)N2CCC[C@@H]2C(=O)N(C)[C@@H](C)C(=O)N1C |
| 4.9 | CC(C)C[C@@H]1C(=O)N[C@H](CC(C)C)C(=O)N2CCC[C@H]2C(=O)N(Cc2ccccc2)CC(=O)N[C@@H](Cc2ccccc2)C(=O)N[C@@H](Cc2ccccc2)CC(=O)N1C |
| 1.8 | CC(C)C[C@@H]1C(=O)N[C@@H](Cc2ccccc2)CC(=O)N2CCC[C@@H]2C(=O)N[C@H](CC(C)C)C(=O)N[C@@H](Cc2ccccc2)C(=O)N(C)[C@@H](C)C(=O)N1C |
| 1.3 | CC(C)C[C@H]1C(=O)N(Cc2ccccc2)CC(=O)N2CCC[C@@H]2C(=O)N(Cc2ccccc2)CC(=O)N[C@@H](Cc2ccccc2)C(=O)N2CCC[C@@H]2C(=O)N(C)[C@H](C)C(=O)N1C |
| 3.6 | CCCN1CC(=O)N[C@@H](CC(C)C)C(=O)N[C@@H](Cc2ccccc2)CC(=O)N2CCC[C@H]2C(=O)N(C)[C@H](CC(C)C)C(=O)N[C@@H](Cc2ccccc2)C(=O)N2CCC[C@@H]2C1=O |
| 2.6 | CC(C)C[C@@H]1NC(=O)[C@H](C)N(C)C(=O)[C@H]2CCCN2C(=O)[C@H](Cc2ccccc2)NC(=O)[C@H](CC(C)C)N(C)C(=O)[C@H]2CCCN2C(=O)[C@H](CC(C)C)NC1=O |
| 4.1 | CC(C)C[C@@H]1NC(=O)C[C@H](Cc2ccccc2)NC(=O)[C@H]2CCCN2C(=O)[C@H](Cc2ccccc2)NC(=O)[C@@H](CC(C)C)N(C)C(=O)[C@H]2CCCN2C(=O)[C@@H](CC(C)C)N(C)C1=O |
| 2.8 | CC(C)C[C@H]1NC(=O)[C@@H](C)NC(=O)[C@@H]2CCCN2C(=O)[C@H](Cc2ccccc2)NC(=O)CN(Cc2ccccc2)C(=O)[C@@H]2CCCN2C(=O)[C@H](CC(C)C)N(C)C1=O |

The last 2 entries again:

| SMILES | PAMPA (10^-6 cm/s) |
|---|---|
| CC(C)C[C@@H]1NC(=O)C[C@H](Cc2ccccc2)NC(=O)[C@H]2CCCN2C(=O)[C@H](Cc2ccccc2)NC(=O)[C@@H](CC(C)C)N(C)C(=O)[C@H]2CCCN2C(=O)[C@@H](CC(C)C)N(C)C1=O | 4.1 |
| CC(C)C[C@H]1NC(=O)[C@@H](C)NC(=O)[C@@H]2CCCN2C(=O)[C@H](Cc2ccccc2)NC(=O)CN(Cc2ccccc2)C(=O)[C@@H]2CCCN2C(=O)[C@H](CC(C)C)N(C)C1=O | 2.8 |

Values of Townsend et al. 2020, doi:10.26434/chemrxiv.13335941.v1, as listed in CycPeptMPDB.